The target in the assay is 5-hydroxytryptamine receptor 2A (Rattus norvegicus, UniProt P14842).

Amino acid sequences for entries named in this document (tags omitted).
UniProt P14842, whole entry: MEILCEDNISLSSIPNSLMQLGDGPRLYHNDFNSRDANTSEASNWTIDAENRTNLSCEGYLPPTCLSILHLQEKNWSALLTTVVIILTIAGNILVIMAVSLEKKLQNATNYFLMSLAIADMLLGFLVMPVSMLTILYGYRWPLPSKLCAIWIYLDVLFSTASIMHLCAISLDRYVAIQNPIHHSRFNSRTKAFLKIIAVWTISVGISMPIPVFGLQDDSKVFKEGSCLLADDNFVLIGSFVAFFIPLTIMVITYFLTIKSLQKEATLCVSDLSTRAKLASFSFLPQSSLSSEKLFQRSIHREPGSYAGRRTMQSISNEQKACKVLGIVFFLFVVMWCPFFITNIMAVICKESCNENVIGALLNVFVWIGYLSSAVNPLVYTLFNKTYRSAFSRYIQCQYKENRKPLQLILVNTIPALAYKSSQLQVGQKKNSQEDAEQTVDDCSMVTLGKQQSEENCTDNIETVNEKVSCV

With `COc1ccc2[nH]cc(CCN)c2c1` [tryptamine, 5-Methoxy], the Ki (commonly a dissociation constant, usually derived from enzyme kinetics or from competition with a known ligand) amounted to 3.79 µM.

The values above are taken from BindingDB's records for PubMed 8510008 (Eli Lilly, 1993).
